Results on five substances are retold here after patent publication US20260031189A1, “METHOD AND SYSTEMS FOR PREDICTION OF HLA CLASS II-SPECIFIC EPITOPES AND CHARACTERIZATION OF CD4+ T CELLS” (BioNTech US Inc., priority 2022, published 2026).

Test [1] addresses NSCLC L7: TCRs on CD4+ T cells.
The target in test [2] is NSCLC L7: TCRs on CD4+ T cells. In words: ex vivo pMHCII multimer staining of patient PBMCs, flow cytometry, PE / BV711.
Test [3] has as its target NSCLC L7: TCRs on CD4+ T cells. In words: ex vivo pMHCII multimer staining of patient PBMCs, flow cytometry, PE / PE-CF594.
Test [4] addresses NSCLC L7: TCRs on CD4+ T cells. In words: ex vivo pMHCII multimer staining of patient PBMCs, flow cytometry, PE / APC.

Like-named read-outs stand apart in the source and are kept apart here.

L7-ASP0034 DRB1*07:01 (peptide-MHC): in test [1], the multimer-positive frequency of CD4+ T cells is 0.002%. With L7-ASP0043 DRB1*07:01 (peptide-MHC), in test [2], the multimer-positive frequency of CD4+ T cells was 0.003%. With L7-ASP0043 DRB1*12:01 (peptide-MHC), the multimer-positive frequency of CD4+ T cells in test [3] came to 0.003%. As for L7-ASP0046 DRB1*12:01 (peptide-MHC), the multimer-positive frequency of CD4+ T cells in test [4] was 0.001%. For the substance L7-ASP0064 DRB1*07:01 (peptide-MHC), the multimer-positive frequency of CD4+ T cells in test [1] turned out to be 0.034%.
